Sampled rows, rich in hits. Any-hit rate of the full collection: about 1.2%.
Cneo AK release: Cryptococcus neoformans cell lysis inducers, primary screen, AK release luminescence, single concentration | C. neoformans lysis, adenylate kinase release luminescence, 4 h; normalised: neutral wells 0, clomiphene wells 100 | lysis activity, % at 15 µM | hit rate 0.2% among 360,000 | AID 651654, 2012;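 active = mean lysis activity across replicates of at least 80%, whatever share of replicates individually reach that level; inactive = mean lysis activity below 80%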
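Assay system: C. neoformans cells. Amount: yeast cell density of 5 × 10^6 cells/mL. Technique: AK luminescence. Buffer or medium: YPD. Times: static 4 h at 37 °C with compound, 1 h detection. Dosing: single-point compound dose. Read-out: lysis from increased AK signal.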
Yeast UUG start-1: modulators of start codon recognition fidelity in yeast; S. cerevisiae UUG-firefly luciferase reporter, luminescence/redox ratio; activity score, % at 18.7 µM; hit rate 0.13% among 350,000; AID 602363;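 active = replicate mean at a twofold rise or more, about +100% in these data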;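 note: firefly luciferase made from a UUG start codon reports start codon fidelity; reporter light over untreated wells divided by growth signal over untreated wells; some hits fall short of that in this replicate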
miR-122 sensor: miR-122 Renilla sensor signal increase in Huh7, primary screen, miR-122 inhibitor project, cell-based, single point, plate reader | Huh7 miR-122 Renilla luciferase sensor, 48 h; neutral wells = 0, positive control = 100 | activation (reporter increase), % at 12.5 µM | hit rate 0.3% among 340,000;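 active = mean replicate activation score at least 90 and every replicate individually at or above 90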;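 also: higher luciferase means less miR-122 activity so hits act as miR-122 inhibitors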
N-glyco inh: increase of ERlucT glycosylation luciferase signal, primary screen, N-linked glycosylation inhibitor project, D54 ERlucT cells, luminescence, set 2; hit rate 0.23% among 360,000; D54 ERlucT glycosylation luciferase reporter, 24 h; percent of 100 nM tunicamycin response; reporter increase, % at 12.5 µM;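 active = mean luciferase reporter signal, scaled so untreated is 0 and the glycosylation-blocking control 100, at or above a set limit in every replicate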;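 also: luciferase carries N-glycosylation sites so blocking glycosylation raises the light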
C2C12 statin: suppressors of statin myotoxicity in C2C12 myotubes, primary screen, cell-based, single point, plate reader. C2C12 myotubes + simvastatin, ATP luminescence, 48 h; scaled: DMSO 0, geranylgeraniol control 100. AID 602340, 2012. hit rate 0.78% among 330,000. rescue of ATP level, % at 7.49 µM;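 active = mean ATP rescue above about 67%, or every replicate alone reaching that limit, limit read from the data, passing the limit was not always enough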;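 also: myotubes were challenged with 10 µM simvastatin during compound exposure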
Yeast UUG start-2: enhancers of UUG start codon usage in yeast, dose response, S. cerevisiae, UUG firefly luciferase, cherry-pick, set 2; shares compounds with Yeast UUG start-1; luminescence, 4 h; 100% means double the DMSO signal; activation, % at 38 µM; 540 tested, under 10 active; AID 652061, 2013;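 active = signal increase whose fitted curve reaches an absolute level of 40 at a concentration under 10 µM; inactive = activity opposite to the expected increase, or the rest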
Numbers stand for hits.

Results for O=C(c1cccnc1)N1C[C@@H]2[C@H](c3ccccc31)[C@H](CO)N2C(=O)C1CCCC1 ?
Cneo AK release: inactive; Yeast UUG start-1: 103; miR-122 sensor: inactive; C2C12 statin: inactive; Yeast UUG start-2: inactive

What do the screens show for `CC(C)NC(=O)Nc1ccc2c(c1)C(=O)N([C@@H](C)CO)C[C@H](C)[C@@H](CN(C)S(=O)(=O)c1ccccc1)OCCCC[C@@H](C)O2`?
Cneo AK release: inactive; Yeast UUG start-1: inactive; miR-122 sensor: inactive

How did COc1ccccc1CNC(=O)C[C@@H]1C[C@H]2c3cc(NC(=O)C4CCOCC4)ccc3O[C@H]2[C@H](CO)O1 do in these assays?
Cneo AK release: inactive; miR-122 sensor: inactive; C2C12 statin: inactive

What do the screens show for `Cc1onc(-c2ccc(Cl)cc2)c1-c1ccnn1S(=O)(=O)c1cccc(C(F)(F)F)c1`?
Cneo AK release: inactive; Yeast UUG start-1: 187; miR-122 sensor: inactive; N-glyco inh: inactive; Yeast UUG start-2: inactive

How did C=CCCCCCCCCC(=O)NNC1CC(=O)N(c2ccccc2)C1=O (stereo not drawn) do in these assays?
Cneo AK release: inactive; Yeast UUG start-1: inactive; miR-122 sensor: inactive; N-glyco inh: inactive; C2C12 statin: inactive

How did Cc1occc1C(=O)Nc1ccccc1NC(=O)c1ccoc1C do in these assays?
Cneo AK release: inactive; Yeast UUG start-1: 198; miR-122 sensor: inactive; N-glyco inh: inactive; C2C12 statin: inactive; Yeast UUG start-2: inactive

Results for COc1ccc(CNC(=O)CCC(=O)Nc2nnc(CC(C)C)s2)cc1 ?
Cneo AK release: inactive; Yeast UUG start-1: inactive; miR-122 sensor: inactive; N-glyco inh: inactive

Results for CSc1ccc(S(=O)(=O)NC2CC2)cc1 ?
Cneo AK release: inactive; Yeast UUG start-1: 155; miR-122 sensor: inactive; N-glyco inh: inactive; C2C12 statin: inactive; Yeast UUG start-2: inactive

How did O=C(/C=C/c1ccccc1)Nc1nc(-c2ccncc2)cs1 do in these assays?
Cneo AK release: inactive; Yeast UUG start-1: 594; miR-122 sensor: inactive; N-glyco inh: inactive; C2C12 statin: inactive; Yeast UUG start-2: inactive

Results for O=C(/C=C\c1ccco1)Nc1nc(-c2ccccc2)cs1 ?
miR-122 sensor: inactive; N-glyco inh: inactive; C2C12 statin: inactive

What do the screens show for `C[C@@H]1CN([C@@H](C)CO)C(=O)c2cc(NS(=O)(=O)c3cccs3)ccc2O[C@@H]1CN(C)C(=O)Nc1cccc2ccccc12`?
Cneo AK release: inactive; Yeast UUG start-1: inactive; miR-122 sensor: inactive; C2C12 statin: inactive

Results for C/C(=N/NC(=O)CNC(=O)c1ccco1)c1ccco1 ?
Cneo AK release: inactive; Yeast UUG start-1: inactive; N-glyco inh: inactive; C2C12 statin: inactive

What do the screens show for `C/C(=N/NC(=O)CNC(=O)c1ccncc1)c1ccco1`?
Cneo AK release: inactive; Yeast UUG start-1: 180; miR-122 sensor: inactive; N-glyco inh: inactive; Yeast UUG start-2: inactive

What do the screens show for `Cc1ccc(Oc2nc3ccccn3c(=O)c2/C=C(\C#N)C(=O)Nc2c(C)n(C)n(-c3ccccc3)c2=O)c(C)c1`?
Cneo AK release: inactive; Yeast UUG start-1: inactive; miR-122 sensor: inactive; N-glyco inh: inactive

What do the screens show for `COc1ccccc1Oc1nc2ccccn2c(=O)c1/C=C(\C#N)C(=O)Nc1c(C)n(C)n(-c2ccccc2)c1=O`?
Cneo AK release: inactive; Yeast UUG start-1: 112; miR-122 sensor: inactive; N-glyco inh: inactive; Yeast UUG start-2: inactive

What do the screens show for `O=C(CNC(=O)c1cc(=O)[nH]c2ccc(S(=O)(=O)N3CCOCC3)cc12)Nc1ccc(F)c(F)c1`?
Cneo AK release: inactive; Yeast UUG start-1: 108; miR-122 sensor: inactive; N-glyco inh: inactive; C2C12 statin: inactive; Yeast UUG start-2: inactive

Results for CCOC(=O)Cn1nc(C)n(-c2ccc(Cl)cc2)c1=O ?
N-glyco inh: inactive

Results for CCOC(=O)Cn1nc(C)n(-c2cccc(Cl)c2)c1=O ?
Cneo AK release: inactive; Yeast UUG start-1: 223; miR-122 sensor: inactive; N-glyco inh: inactive; C2C12 statin: inactive; Yeast UUG start-2: inactive
